Results: patent US20200206304A1, “METHODS AND COMPOSITIONS FOR EFFICIENT DELIVERY THROUGH MULTIPLE BIO BARRIERS” (Cedars-Sinai Medical Center, priority 2017, published 2020)

Assays:
[1] = test system: blood-brain barrier (BBB); details: transgenic mice vs normal mice, doses 2×-8×
[2] = test system: blood-brain barrier (BBB); assay: BBB penetration: nanoconjugate fluorescence in brain parenchyma of healthy mice by optical imaging; details: i.v. 0.068-0.548 μmol/kg, 120 min, cortex, midbrain, hippocampus
[3] = Zeta potential measurements (Zetasizer Nano ZS90); assay type: physicochemical; details: in PBS; voltage 150 mV
Experimental: Zeta Potential Measurements: Synthesized conjugates were characterized with respect to their ζ potential using a Zetasizer Nano ZS90 (Malvern Instruments, Malvern, UK). Ten microliter aliquots of nanoconjugate samples were diluted in 0.99 mL PBS, and the voltage applied was 150 mV. Data represent the mean of three measurements±their standard deviation.

[4] = Dynamic light scattering, hydrodynamic diameter and PDI; assay type: physicochemical; details: DLS in PBS; conjugates without attached rhodamine
Experimental: Dynamic Light Scattering: Synthesized conjugates were characterized using a Zetasizer Nano ZS90 (Malvern Instruments, Malvern, UK). Ten microliter aliquots of nanoconjugate samples were diluted in 0.99 mL PBS and were measured 3 times using a clear cuvette. Data represent the mean of three measurements and polydispersity index.

[5] = test system: Brain (other hemisphere); details: 2 h, PBS background subtracted
[6] = i.v. 0.068 μmol/kg; single exponential decay fit

PMLA/LLL/rhodamine [P/LLL]
BBB permeation efficacy in AD brain (in words) [1]: A decrease was not observed | BBB penetration / nanoconjugate fluorescence in brain parenchyma (in words) [2]: penetrates the BBB even without a peptide moiety | ζ potential [3]: −16.5 mV | Hydrodynamic diameter (volume mode) [4]: 2.68 nm | Brain (other hemisphere) fluorescence ([5]; dose 1X): 1.0 | Brain (other hemisphere) fluorescence ([5]; dose 4X): 5.1 | serum half-life [6]: 1.98 h

Like-named read-outs stand apart in the source and are kept apart here.
